In assay [1] the test system is hepatoma cell line BEL7404. Type of assay: cell-based. As to conditions: Table 8; at a concentration of 1% in cell cultivating for 72 h; unit inferred. The procedure: (§1) The hepatoma cell line BEL7404 (purchased from The Chinese Academy of Sciences cell bank) was a cell line with high expression of YAP protein; HCCLM3 (purchased from The Chinese Academy of Sciences cell bank) was a cell line with low expression of YAP protein. The hepatoma cell lines (BEL7404 or HCCLM3) were inoculated into a 96-well plate at the concentration of 2000 cells/well, and incubated overnight in RPMI1640 containing 1% bovine serum at 37° C. The hepatoma cell lines were treated with polypeptides having different concentrations at 37° C. for 72 h.
(§2) Moreover, IC50 values of the cells in 1.1 were determined using CCK-8 kit.
(§3) The polypeptide represented by SEQ ID NO.:1 was further modified. The IC50 values of the polypeptides at a concentration of 1% in cell cultivating for 72 h were measured.

For assay [2], the system named is hepatoma cell line HCCLM3. Type of assay: cell-based. The following applies: Table 8; at a concentration of 1% in cell cultivating for 72 h; unit inferred. The procedure: as §1, §2, §3

Molecules are shown by their SMILES.

For orientation: IC50 means the concentration that gives 50% inhibition. High values mean a need for much substance, low ones inhibition by little substance.

As to `CCCC[C@@H]1NC(=O)[C@H](CCCCN)NC(=O)[C@H](CCCCN)NC(=O)[C@@H](NC(=O)[C@H](CC(C)C)NC(=O)[C@H](Cc2cccc(Cl)c2)NC(=O)[C@@H]2CCCN2C(=O)[C@@H](N)C(C)C)CCSSC[C@@H](C(=O)N2CCC[C@H]2C(=O)N2CCC[C@H]2C(=O)N[C@@H](CCCNC(=N)N)C(=O)N[C@@H](CCCNC(=N)N)C(=O)N[C@@H](CCSC)C(=O)N[C@@H](CCCCN)C(=O)N[C@@H](Cc2c[nH]c3ccccc23)C(=O)N[C@@H](CCCCN)C(=O)N[C@@H](CCCCN)C(=O)O)NC(=O)[C@H](CCCCN)NC(=O)[C@H](Cc2ccccc2)NC(=O)[C@H](CO)NC(=O)[C@H](C)NC(=O)[C@@H]2CCCN2C1=O` [compound 32], the IC50 in assay [1] turned out to be 38.4 ± 3.8 µM; in assay [2] it was 319 ± 17.5 µM.
